Reference: US5236903A, “Polypeptide comprising repeated cell-adhesive core sequences” (Azuma; Ichiro, priority 1988, dated 1993)

System: erythrocytes, spleen and thymus cells
Assay: Cytotoxicity on erythrocytes, spleen and thymus cells

Substance	Cytotoxicity on erythrocytes, spleen and thymus cells
Poly(L-arginyl-glycyl-L-aspartic acid)hydrochloride [Poly(Arg-Gly-Asp)-1500]	neither any cytotoxicity
Poly(L-arginylglycyl-L-aspartate hydrochloride) [Poly(Arg-Gly-Asp)]	neither any cytotoxicity
